These results are taken from ChEMBL document CHEMBL3102835, “Dimeric unnatural polyproline-rich peptides with enhanced antibacterial activity” (Bioorg Med Chem Lett, 2014).

One experiment deals with Staphylococcus aureus. Briefly: Antibacterial activity against Staphylococcus aureus by broth microdilution method. It counts as functional. In a few lines:
(§1)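 Broth microdilution. E. coli ATCC 25922 or S. aureus ATCC 25923 grown to mid-exponential phase in TSB at 37 °C, 200 rpm. MIC taken as the lowest concentration with no growth.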

A further experiment relates to Escherichia coli. Briefly: Antibacterial activity against Escherichia coli by broth microdilution method. It counts as functional. In a few lines: as §1
A general note: Broth dilution looks for growth in wells or tubes with falling amounts of substance.

Values after ≈ are worked out from the molar mass of the structure shown.

In the case of `CC[C@H](C)[C@H](NC(=O)CN)C(=O)NCC(=O)N[C@@H](C)C(=O)N[C@H](C(=O)N[C@@H](CC(C)C)C(=O)N[C@@H](CCCCN)C(=O)N[C@H](C(=O)N[C@@H](CC(C)C)C(=O)N[C@H](C(=O)N[C@H](C(=O)NCC(=O)N[C@@H](CC(C)C)C(=O)N1CCC[C@H]1C(=O)N[C@@H](C)C(=O)N[C@@H](CC(C)C)C(=O)N[C@H](C(=O)N[C@@H](CO)C(=O)N[C@@H](Cc1c[nH]c2ccccc12)C(=O)N[C@H](C(=O)N[C@@H](CCCCN)C(=O)N[C@@H](CCCNC(=N)N)C(=O)N[C@@H](CCCCN)C(=O)N[C@@H](CCCNC(=N)N)C(=O)N[C@@H](CCC(N)=O)C(=O)N[C@@H](CCC(N)=O)C(N)=O)[C@@H](C)CC)[C@@H](C)CC)[C@@H](C)O)[C@@H](C)O)C(C)C)C(C)C` [MELITTIN], the results for the MIC with Staphylococcus aureus and in the experiment with Escherichia coli were 2.1 µM (≈ 5.98 µg/mL) and 4.6 µM (≈ 13.1 µg/mL), respectively.

The MIC is the smallest concentration in the dilution series that meets the test's criterion for growth inhibition. A higher MIC goes with a need for much substance.
